## scFv variants of Ab-91 (heavy chain) against a SARS-CoV-2 spike peptide

The measurements come from Engelhart et al. 2022 (doi:10.1038/s41597-022-01779-4) through the FLAb antibody collection.

The target is the same throughout: PDVDLGDISGINAS, from the HR2 region of SARS-CoV-2 spike.

The variants keep the light chain, the linker and the frameworks of Ab-91 (scFv order VL, a (GGGGS)3 linker, VH).
VL: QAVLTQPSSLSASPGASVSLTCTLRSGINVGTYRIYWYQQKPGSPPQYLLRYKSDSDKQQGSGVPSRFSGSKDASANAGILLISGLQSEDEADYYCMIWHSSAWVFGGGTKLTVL
VH: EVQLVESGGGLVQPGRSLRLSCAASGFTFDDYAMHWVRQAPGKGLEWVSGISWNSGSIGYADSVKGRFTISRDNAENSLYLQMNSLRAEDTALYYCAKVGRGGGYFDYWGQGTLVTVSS

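The library (AAYL51) carries one to three amino acid substitutions per variant, with no insertions or deletions. In AlphaSeq, yeast of one mating type display the scFv and yeast of the other type display the target. Binding brings cells together so that they mate, and sequencing counts the barcode pairs among the diploids. The ratio of observed to expected reads was calibrated, replicate by replicate, on BCL2-family standards whose Kd was known from biolayer interferometry. Each pool was mated in three replicate cultures.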

The parent's heavy chain CDRs are GFTFDDYAMH, GISWNSGSIGYADSVK, VGRGGGYFDY; each variant's own CDRs replace them letter for letter.
Every variant below is changed at N54 of the VH (sequential numbering).
Numbers give log10(Kd / nM), so 0 is 1 nM and 3 is 1 µM. Smaller is tighter.
"nd" means that the variant was in the library but no mating with the target was seen in that replicate; the authors take this as a sign of poor binding, and no number exists.
Three control strains display no target. For library AAYL51, 21% of the pairings with them gave a signal, with a median of 4.54 and one signal in twenty below 3.26, so weak values seen in few replicates may be background.

With GFTFDDYAMH | GISWHGGSCGYADSVK | VGRGGGYFDY the result was 0.98, 0.94, 0.49. The variant GFTFDDYAMH | MISWSSGSIGYADSVK | VGRGGGYPDY gave 5.08, nd, 5.29. The variant GFTFDDYAMH | GISWKSGSIGYADSVK | VGRGGGSFDL gave 4.65, nd, 3.68. For GFTFDDYAMH | GISWWSGSIGYADSVK | CGRGGGYWDY, the assay gave nd, nd, nd. The variant GFTFDDYAMH | GISWVSGSIGYADSVK | VGRGGPYFDE showed nd, nd, nd. The variant GFTFDDYAMH | GISWCSGSIGYADSVK | RGRGGGYFDY showed nd, nd, nd. For GFTDDDYAMH | GISWGSGSIGYADSVK | VGRGGGYFDW, the assay gave 4.92, nd, nd. The variant GFTFDDYAMH | GISWLSGSIGYGDSVK | VGRGGGYFDY gave nd, nd, nd. The variant GFTFDDYAMH | GISWVSGSIGYADSVK | VGRGLGYMDY gave nd, nd, nd.

The variant GFTFDDYAMH | GISWMFGSIGYADSVD | VGRGGGYFDY showed nd, 4.49, nd. The variant GFTFDDYAMH | GISWFSGSIGVADSVY | VGRGGGYFDY showed nd, nd, nd. The variant GFTFDDFAML | GISWGSGSIGYADSVK | VGRGGGYFDY gave nd, nd, 4.48. The variant GFTFDDYAMH | GISWKSGSIGYADGVK | VGRGGGMFDY gave nd, nd, nd. With GFTFDDYAMH | GISWTRGSIGYAPSVK | VGRGGGYFDY the result was 4.27, nd, 4.79. For GFTFYDYAMH | GISWESGSIGYADSVK | VWRGGGYFDY, the assay gave 4.23, nd, nd. The variant GFTFFDYAMH | GISWDSGSIGYADSVK | VGRGGGKFDY gave 0.82, 0.80, 0.35. The variant GFTFDDYAMH | GDSWFSFSIGYADSVK | VGRGGGYFDY showed nd, 4.40, nd. For GFVFDDYAMH | GISWDSGSIGYADSVK | VGRGGGYYDY, the assay gave 1.19, 1.36, 0.77.

The variant GFTFDDYAMH | LISWASGSIGYAWSVK | VGRGGGYFDY gave 5.48, nd, nd. With GFTFDDYAMH | GISWFIWSIGYADSVK | VGRGGGYFDY the result was nd, nd, nd. For GFTFVDYAMH | GISWCSGSIGYADSVK | VGRGGGMFDY, the assay gave nd, nd, nd. For GFTFDDYAMH | AISWVSGSIGWADSVK | VGRGGGYFDY, the assay gave 4.28, 5.25, nd. With GFTFDDYAMH | GISWMSGSIGPADSSK | VGRGGGYFDY the result was nd, nd, nd. The variant GFTFDDYAMH | GISWYSGSIGYRDSVK | VGRGGGYFDY showed nd, 4.61, 4.71. The variant GFTFDDYGMH | GISWMSGSIGYADSVD | VGRGGGYFDY gave 3.33, 2.62, 3.18. For GFTFDDYAMH | GISWESGSIMYADSVK | VGAGGGYFDY, the assay gave nd, nd, nd. The variant GFTFDDYAMH | GGSWTSGSIGYADSVK | VGRGGGTFDY gave 4.78, 5.05, 4.20.

The variant GFTFDDYFMH | GISWYSGSIGYADSVK | VGRGGGYFHY showed 5.80, nd, nd. The variant GFTFDDYFMH | GISWSSGVIGYADSVK | VGRGGGYFDY gave 4.25, 5.04, 4.46. With GFTFDDYAMH | GISWGSGSIGYAKSVK | VGAGGGYFDY the result was 4.89, 5.24, nd. For GFTFDDYAMH | GISWYSGSRGYADSVK | VGVGGGYFDY, the assay gave nd, 5.38, nd. The variant GFTFDDYAMH | GISRHSGSSGYADSVK | VGRGGGYFDY gave nd, 4.34, 4.44. The variant GFTFDDYAMH | GISWHSQSIDYADSVK | VGRGGGYFDY gave nd, nd, nd. The variant GFTFDDYAMH | GISWQSGSIGLADWVK | VGRGGGYFDY gave nd, nd, nd. For GFAFDDYACH | GISWTSGSIGYADSVK | VGRGGGYFDY, the assay gave 3.83, nd, nd. With GFTFDDYAMH | GISWPSGSIGYADSVK | VDRGAGYFDY the result was nd, nd, nd.

The variant GFTFDDYAMH | NISWKSGSGGYADSVK | VGRGGGYFDY gave nd, nd, nd. The variant GFTFDDYYMH | GIIWMSGSIGYADSVK | VGRGGGYFDY gave 5.15, 5.78, nd. With GFTFDDYAMH | GISWTSGSIGYADSVG | VGRGGGYWDY the result was nd, nd, nd.

The closing 5 entries, repeated:

| CDR-H1 | CDR-H2 | CDR-H3 | replicates, log10 nM |
|---|---|---|---|
| GFAFDDYACH | GISWTSGSIGYADSVK | VGRGGGYFDY | 3.83, nd, nd |
| GFTFDDYAMH | GISWPSGSIGYADSVK | VDRGAGYFDY | nd, nd, nd |
| GFTFDDYAMH | NISWKSGSGGYADSVK | VGRGGGYFDY | nd, nd, nd |
| GFTFDDYYMH | GIIWMSGSIGYADSVK | VGRGGGYFDY | 5.15, 5.78, nd |
| GFTFDDYAMH | GISWTSGSIGYADSVG | VGRGGGYWDY | nd, nd, nd |